The source of these data is PubChem BioAssay AID1385 (PCMD, 2008).

The chains behind the UniProt entries cited, without tags or fusion partners.
UniProt Q06609, whole entry: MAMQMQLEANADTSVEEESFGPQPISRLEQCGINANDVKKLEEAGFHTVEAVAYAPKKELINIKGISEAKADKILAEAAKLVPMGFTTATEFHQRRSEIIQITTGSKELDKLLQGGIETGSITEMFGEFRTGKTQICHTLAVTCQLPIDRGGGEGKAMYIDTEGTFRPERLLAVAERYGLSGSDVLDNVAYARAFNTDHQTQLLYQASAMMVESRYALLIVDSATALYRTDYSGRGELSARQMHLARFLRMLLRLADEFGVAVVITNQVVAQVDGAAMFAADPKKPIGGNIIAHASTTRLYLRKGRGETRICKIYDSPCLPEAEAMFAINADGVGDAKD

The list shows a part of the results, in another mix than the full data. Some results for these compounds are left out of this collection, so the calls shown say nothing about other tests. The source made the active and inactive calls.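 How the source made its calls: active means inhibition above 40% at the single screening dose; inactive means the rest.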

The target of the assay is DNA repair protein RAD51 homolog 1 (Homo sapiens) (UniProt Q06609). Nature of the assay: human RAD51 strand exchange inhibitors, primary screen, biochemical, fluorescence (AID 1385).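 Further: 0% = DMSO control wells and 100% = blanks with heterologous ssDNA.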 As to conditions: hRad51 DNA strand exchange, fluorescence dequenching; at 10 µM; stronger effect = higher value.
In general, inhibition refers to the relative decrease from the control value, in per cent. Turning to `COc1cccc(C(=O)NCC2(N3CCCCC3)CCCCC2)c1`, the inhibition is inactive: 9.06%. Then `O=C(OC1CN2CCC1CC2)C(CO)(c1ccccc1)c1ccccc1` (stereo not given), with inactive: 0.49%.

Consider `COc1ccc(Br)c(C(=O)NCC2(N3CCCCC3)CCCCC2)c1`, for which the inhibition is inactive: -38.4%. Regarding `CN(C)c1cccc(C(=O)NCC2(N(C)C)CCCCC2)c1`, the inhibition was inactive: 16.2%. With `CCN(CC)CC(C)C(C)OC(=O)C(O)(c1ccccc1)c1ccccc1` (stereo not given) the figure was inactive: 1.12%; with `CC(C)N1C(=O)CC2(CCN(CCOC(=O)C(O)(c3ccccc3)c3ccccc3)CC2)C1=O`, inactive: 3.57%; with `Cc1ccccc1C(=O)NCC1(N2CCCCC2)CCCCC1`, inactive: -18.8%. Then `CN(C)C1CCCC1OC(=O)C(O)(c1ccccc1)c1ccccc1` (stereo not given), with inactive: 1.54%; and `C=CCN1CCN(CCOC(=O)C(O)(c2ccccc2)c2ccccc2)CC1`, with inactive: 11.1%. For `CCN1CCCC(OC(=O)C2(O)c3ccccc3C=Cc3ccccc32)C1` (stereo not given), the inhibition is inactive: -31.6%.
